This note sets out measurements from patent EP2289528A1, “Novel nutraceutical compositions containing black pepper or its constituents improving mental performance” (DSM IP Assets B.V., priority 2009, dated 2011).

Structures are written as SMILES.

The assay deals with GluR1. Kind of assay: Hippocampal slice cultures, immunohistochemistry of synaptic marker GluR1. The class given is cell-based, Wistar rats. Particulars: relative activation vs sister cultures treated with buffer; 15 min treatment after 48 h in culture. As to the method: Seven-day-old Wistar rats were decapitated using a guillotine. […] Transversal hippocampal slices (400 µm) were prepared using a vibrating blade microtome (VT1200S; Leica Microsystems (Schweiz) AG, Heerbrugg, Switzerland) in the same buffer. Hippocampal slices were individually placed on a membrane insert (Millicell Culture Plate Inserts, 0.4 µm) and cultivated at 35 °C, 5% CO2, 95% humidity in a medium containing a 1:1 mixture of BME and MEM (both from Invitrogen) containing 25% heat-inactivated horse serum, 1x GlutaMAX, 1x Penicillin/Streptomycin, 0.6% glucose and 1mM Kynurenic acid (Stoppini, Buchs and Muller (1991), J. Neurosci. Methods, 37(2), 173-82). After 48 h in culture, synaptic NMDA receptors were activated by addition of black pepper extract or its constituents for 15 min in 140 mM NaCl, 5 mM KCl, 1.3 mM CaCl2, 25 mM HEPES (pH 7.3), 33 mM D-glucose and 0.02 mM bicuculline methiodide. […] An additional positive control comprised the addition of 200 µM glycine to sister cultures. After the treatments, sections were washed and fixed for immunohistochemistry. Markers of enhanced synaptic activity, normally associated with long-term potentiation, representing an ex vivo model of learning and memory were quantitated (see Table 2, below). Table 2. […] The activation of any of these markers (or a combination thereof) is observed in classical LTP experiments. TABLE 2 […]

Turning to `NCC(=O)O` [Glycine, reference compound], the GluR1 is 123-298%.
